Laboratory results: patent US20090226952A1, “SCREENING METHOD FOR COMPOUNDS WITH A[…]” (Isis Innovation Limited, priority 2005, published 2009)

System: in vitro hippocampal slices (Schaffer Collaterals, excitatory post-synaptic potentials)
Experiment: Electrophysiological field potential (EPSP) recordings in paired-pulse stimulated hippocampal slices
Type: cell-based, rat
Details: morphine 10-100 μM, gabapentin 100-150 μM, thiopental 80-150 μM, propofol 10-50 μM
Description: In the study, collective synchronised neuronal activity, i.e. working neuronal assemblies^3, were recorded while monitoring in parallel the underlying synaptic electrical activity (FIG. 1a). Accordingly, the use of the voltage sensitive dye, Di-4-ANEPPS, was combined with standard electrophysiological field potential recordings to measure the excitatory post-synaptic potentials (EPSPs). Under control conditions in physiological saline, electrical stimuli in a paired-pulse paradigm^18 were applied to the Schaffer Collaterals of in vitro hippocampal slices.
Following terminal anaesthesia using halothane, 400 μm transverse hippocampal slices from 2 week Wistar rats were obtained and left to rest for one hour in a high humidity chamber with oxygenated artificial cerebrospinal fluid (ACSF) (in mM: 124 NaCl, 22 NaHCO3, 10 glucose, 5 KCl, 2 CaCl2, 1.25 MgSO4, 1.25 NaH2PO4) before being submersed in dye solution (4% dye stock solution (in mM: 0.2 mM Di-4-ANEPPS (Molecular Probes, Oregon, USA) in 2.7% ethanol, 0.13% Cremaphor EL), 48% fetal bovine serum and 24% ACSF and 24% ACSF cellulose) for 25 minutes followed by a further one hour rest in the humidity chamber with oxygenated ACSF.
Electrical stimulation (paired pulse 8-10V, 60 ms interval, 0.1 ms duration) was generated by an isolated stimulator (Digitimer Ltd, UK) via a bipolar electrode (FHC, Maine, USA) and positioned just above the CA3 region. In this way, paired pulses were applied along the Shaffer Collaterals so as to elicit a spreading depolarising wave that formed from the point of stimulation and moved along the pathway towards the CA1 region. A halogen lamp provided the excitatory wavelengths for the dye (through a λ=530±10 nm filter) while the emission was captured on a 2 mm×3 mm CCD sensor (MiCAM01, BrainVision, Tokyo, Japan) through an absorption filter (λ=590 nm). Optical recordings were acquired at a rate of 0.7 ms frame^−1 for 682 frames. 16 optical recordings were averaged for each experimental condition to reduce the effects of dye bleaching and increase the signal-to-noise ratio. […]

In the case of `CN1CC[C@]23c4c5ccc(O)c4O[C@H]2[C@@H](O)C=C[C@H]3[C@H]1C5` [morphine], the “paired-pulse facilitation in EPSP recordings, treatment vs control” value is reported as “no significant enhancement of facilitation”, the “EPSP peak 1 value vs control” value (paired t-test n=6) is reported as “significant increases” and the “EPSP peak 2 value vs control” value (paired t-test n=6) is reported as “significant increases”.
